{"source": "patent US20240398768A1", "about": "“METHODS OF TREATING SOLID TUMOR USING HETEROAROMATIC MACROCYCLIC ETHER COMPOUNDS” (Nuvalent, Inc., priority 2021, published 2024)", "test_system": "NIH3T3 cells expressing ROS1 fusions with G2032R", "assay": "Anchorage-independent colony formation assay", "format": "cell-based", "details": "at 100 nM"}
{"molecule": "C[C@@H](Oc1cc(-c2cnn(C3CCNCC3)c2)cnc1N)c1c(Cl)ccc(F)c1Cl", "note": "[Crizotinib]", "values": [{"measurement": "inhibition of colony formation", "result": "weaker effects"}]}
